Measurements from BindingDB's records for doi:10.1021/acs.jmedchem.0c00960 (Endotherm, 2020).

By UniProt entry, the sequences of proteins in these tests, tags left out.
UniProt P24864, whole entry, looked up: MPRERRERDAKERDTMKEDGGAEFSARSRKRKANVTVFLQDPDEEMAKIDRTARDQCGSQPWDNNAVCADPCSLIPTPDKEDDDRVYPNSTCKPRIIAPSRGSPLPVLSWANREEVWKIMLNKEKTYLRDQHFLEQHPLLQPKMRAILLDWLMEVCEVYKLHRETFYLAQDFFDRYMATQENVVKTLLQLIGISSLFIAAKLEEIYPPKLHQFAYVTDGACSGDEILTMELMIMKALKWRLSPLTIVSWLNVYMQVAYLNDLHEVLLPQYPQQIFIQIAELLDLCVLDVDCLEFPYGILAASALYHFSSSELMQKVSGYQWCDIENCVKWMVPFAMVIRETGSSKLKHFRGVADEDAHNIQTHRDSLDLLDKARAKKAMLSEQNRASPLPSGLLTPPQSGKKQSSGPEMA
UniProt P06493, whole entry: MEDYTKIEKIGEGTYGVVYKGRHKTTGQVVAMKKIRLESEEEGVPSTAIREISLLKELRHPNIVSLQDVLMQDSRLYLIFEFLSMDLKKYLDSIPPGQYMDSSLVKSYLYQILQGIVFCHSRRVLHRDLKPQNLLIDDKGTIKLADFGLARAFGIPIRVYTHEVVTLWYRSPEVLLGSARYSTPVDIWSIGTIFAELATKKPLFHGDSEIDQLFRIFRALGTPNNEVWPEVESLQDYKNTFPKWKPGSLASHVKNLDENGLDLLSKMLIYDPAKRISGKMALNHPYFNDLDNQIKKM
UniProt P14635, whole entry: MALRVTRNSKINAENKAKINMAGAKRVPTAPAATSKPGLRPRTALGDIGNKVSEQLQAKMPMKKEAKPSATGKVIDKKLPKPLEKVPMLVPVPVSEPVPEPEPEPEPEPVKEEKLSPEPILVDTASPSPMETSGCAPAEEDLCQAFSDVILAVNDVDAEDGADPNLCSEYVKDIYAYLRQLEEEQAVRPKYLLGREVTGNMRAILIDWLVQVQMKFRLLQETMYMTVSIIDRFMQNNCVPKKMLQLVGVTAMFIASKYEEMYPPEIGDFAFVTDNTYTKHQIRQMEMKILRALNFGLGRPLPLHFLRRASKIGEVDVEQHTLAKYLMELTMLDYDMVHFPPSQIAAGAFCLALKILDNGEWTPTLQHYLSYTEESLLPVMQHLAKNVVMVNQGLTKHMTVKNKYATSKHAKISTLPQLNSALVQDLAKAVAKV

Columns and labels:
[1] = biological target: Cyclin-dependent kinase 2/G1/S-specific cyclin-E1 (Homo sapiens, UniProt P24941+P24864)
[2] = biological target: Cyclin-dependent kinase/G2/mitotic-specific cyclin- 1 (Homo sapiens, UniProt P06493+P14635)

IC50 [1]: 8 nM
IC50 [2]: 9 nM
Compound: C[C@@H](O)[C@@H](C)Oc1nc(Nc2ccc(S(C)(=O)=O)cc2)ncc1C(F)(F)F [US8802686, 2]
